Common to all, as to assay: TPP in intact U2OS cells
One experiment has as its target T1, PSMG4 (Homo sapiens, UniProt Q5JS54).
T1 sequence (Q5JS54 1-123): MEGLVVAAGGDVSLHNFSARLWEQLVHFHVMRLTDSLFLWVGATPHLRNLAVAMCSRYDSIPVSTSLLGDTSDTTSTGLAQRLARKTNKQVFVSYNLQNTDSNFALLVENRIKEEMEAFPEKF
Format: binding.

By UniProt entry, the sequences of proteins in these tests, tags left out. Where a name states a change or a piece, a line headed by the entry shows the natural chain unless it says otherwise. Residues count along the entry.
UniProt Q13409, whole entry: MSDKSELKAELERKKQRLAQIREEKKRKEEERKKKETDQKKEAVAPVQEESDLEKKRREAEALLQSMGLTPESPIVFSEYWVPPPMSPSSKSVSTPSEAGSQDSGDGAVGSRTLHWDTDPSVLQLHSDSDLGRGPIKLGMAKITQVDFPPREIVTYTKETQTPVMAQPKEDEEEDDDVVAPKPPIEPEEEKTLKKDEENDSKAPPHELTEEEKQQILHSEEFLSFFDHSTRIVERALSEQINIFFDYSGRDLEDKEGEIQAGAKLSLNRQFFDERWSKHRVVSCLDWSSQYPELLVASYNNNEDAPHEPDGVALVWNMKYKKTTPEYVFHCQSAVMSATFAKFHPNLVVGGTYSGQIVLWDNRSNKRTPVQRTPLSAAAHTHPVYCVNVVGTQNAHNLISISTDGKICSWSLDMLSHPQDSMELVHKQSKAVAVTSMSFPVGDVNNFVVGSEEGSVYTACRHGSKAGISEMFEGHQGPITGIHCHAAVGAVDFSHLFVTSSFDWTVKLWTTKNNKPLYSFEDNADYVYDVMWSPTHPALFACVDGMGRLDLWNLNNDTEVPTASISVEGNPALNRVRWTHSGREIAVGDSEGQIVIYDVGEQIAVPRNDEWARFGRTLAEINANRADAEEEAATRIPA
UniProt Q9HBL0: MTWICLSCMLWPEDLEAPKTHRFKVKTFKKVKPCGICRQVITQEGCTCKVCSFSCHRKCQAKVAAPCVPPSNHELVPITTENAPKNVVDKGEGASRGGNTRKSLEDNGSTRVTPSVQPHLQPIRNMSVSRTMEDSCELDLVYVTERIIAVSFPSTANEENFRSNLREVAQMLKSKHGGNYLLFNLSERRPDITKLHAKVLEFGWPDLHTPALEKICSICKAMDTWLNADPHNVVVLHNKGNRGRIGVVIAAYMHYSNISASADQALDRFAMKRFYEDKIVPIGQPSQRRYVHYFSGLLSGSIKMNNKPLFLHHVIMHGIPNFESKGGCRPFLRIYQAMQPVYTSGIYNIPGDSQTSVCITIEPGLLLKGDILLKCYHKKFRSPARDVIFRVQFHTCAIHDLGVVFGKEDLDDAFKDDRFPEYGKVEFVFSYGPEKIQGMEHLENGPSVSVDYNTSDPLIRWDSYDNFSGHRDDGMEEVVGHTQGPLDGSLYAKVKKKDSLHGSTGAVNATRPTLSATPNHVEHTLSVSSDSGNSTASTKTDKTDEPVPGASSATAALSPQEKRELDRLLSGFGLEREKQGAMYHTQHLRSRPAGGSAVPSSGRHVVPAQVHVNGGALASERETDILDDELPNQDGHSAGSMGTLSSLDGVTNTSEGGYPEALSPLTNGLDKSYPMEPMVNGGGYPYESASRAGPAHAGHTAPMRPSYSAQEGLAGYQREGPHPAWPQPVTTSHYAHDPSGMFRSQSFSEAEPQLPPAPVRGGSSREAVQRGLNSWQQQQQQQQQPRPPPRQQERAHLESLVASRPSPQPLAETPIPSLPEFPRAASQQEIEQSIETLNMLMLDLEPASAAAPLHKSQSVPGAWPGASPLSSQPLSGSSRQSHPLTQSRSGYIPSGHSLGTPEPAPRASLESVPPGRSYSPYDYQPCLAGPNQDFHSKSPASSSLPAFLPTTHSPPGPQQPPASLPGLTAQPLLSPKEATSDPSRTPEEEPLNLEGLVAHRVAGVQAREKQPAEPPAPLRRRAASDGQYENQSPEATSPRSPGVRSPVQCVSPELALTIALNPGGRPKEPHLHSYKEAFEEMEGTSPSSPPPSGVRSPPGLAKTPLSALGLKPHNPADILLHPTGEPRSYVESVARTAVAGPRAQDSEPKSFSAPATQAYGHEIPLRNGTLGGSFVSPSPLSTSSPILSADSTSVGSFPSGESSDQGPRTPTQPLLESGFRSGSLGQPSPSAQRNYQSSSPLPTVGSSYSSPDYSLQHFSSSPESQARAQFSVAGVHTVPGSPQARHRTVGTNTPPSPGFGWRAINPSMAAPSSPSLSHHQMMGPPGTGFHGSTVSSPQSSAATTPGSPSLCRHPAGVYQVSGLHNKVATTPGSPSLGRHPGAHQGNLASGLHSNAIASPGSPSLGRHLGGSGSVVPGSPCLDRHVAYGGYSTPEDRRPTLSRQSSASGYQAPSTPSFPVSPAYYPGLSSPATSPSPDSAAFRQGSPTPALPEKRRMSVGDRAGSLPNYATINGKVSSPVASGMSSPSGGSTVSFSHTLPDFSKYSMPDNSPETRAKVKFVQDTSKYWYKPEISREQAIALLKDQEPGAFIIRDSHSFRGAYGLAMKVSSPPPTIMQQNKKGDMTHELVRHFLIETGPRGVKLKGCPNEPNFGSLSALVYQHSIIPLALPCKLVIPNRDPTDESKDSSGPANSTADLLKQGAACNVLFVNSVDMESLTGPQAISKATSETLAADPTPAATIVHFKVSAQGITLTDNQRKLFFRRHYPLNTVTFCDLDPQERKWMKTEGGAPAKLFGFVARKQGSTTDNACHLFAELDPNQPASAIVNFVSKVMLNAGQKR
UniProt Q9NP81, 35-518: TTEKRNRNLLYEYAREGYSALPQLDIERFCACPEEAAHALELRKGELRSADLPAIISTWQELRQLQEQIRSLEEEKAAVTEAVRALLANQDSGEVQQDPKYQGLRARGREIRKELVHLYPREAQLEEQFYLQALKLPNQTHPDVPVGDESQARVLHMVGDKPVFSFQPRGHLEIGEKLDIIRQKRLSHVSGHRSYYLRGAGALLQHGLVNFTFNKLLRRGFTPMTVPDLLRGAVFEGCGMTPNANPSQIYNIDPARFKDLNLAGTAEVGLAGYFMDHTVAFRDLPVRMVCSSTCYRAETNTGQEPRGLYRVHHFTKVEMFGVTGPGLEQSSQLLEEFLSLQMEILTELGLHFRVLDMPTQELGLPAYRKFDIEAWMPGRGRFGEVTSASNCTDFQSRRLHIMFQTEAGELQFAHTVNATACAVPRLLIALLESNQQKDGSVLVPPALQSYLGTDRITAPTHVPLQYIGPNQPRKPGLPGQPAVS

Experiment [1] addresses T2, Rab GTPase-binding effector protein 1 (RABEP1) (Homo sapiens, UniProt Q15276).
T2 sequence (Q15276 1-862): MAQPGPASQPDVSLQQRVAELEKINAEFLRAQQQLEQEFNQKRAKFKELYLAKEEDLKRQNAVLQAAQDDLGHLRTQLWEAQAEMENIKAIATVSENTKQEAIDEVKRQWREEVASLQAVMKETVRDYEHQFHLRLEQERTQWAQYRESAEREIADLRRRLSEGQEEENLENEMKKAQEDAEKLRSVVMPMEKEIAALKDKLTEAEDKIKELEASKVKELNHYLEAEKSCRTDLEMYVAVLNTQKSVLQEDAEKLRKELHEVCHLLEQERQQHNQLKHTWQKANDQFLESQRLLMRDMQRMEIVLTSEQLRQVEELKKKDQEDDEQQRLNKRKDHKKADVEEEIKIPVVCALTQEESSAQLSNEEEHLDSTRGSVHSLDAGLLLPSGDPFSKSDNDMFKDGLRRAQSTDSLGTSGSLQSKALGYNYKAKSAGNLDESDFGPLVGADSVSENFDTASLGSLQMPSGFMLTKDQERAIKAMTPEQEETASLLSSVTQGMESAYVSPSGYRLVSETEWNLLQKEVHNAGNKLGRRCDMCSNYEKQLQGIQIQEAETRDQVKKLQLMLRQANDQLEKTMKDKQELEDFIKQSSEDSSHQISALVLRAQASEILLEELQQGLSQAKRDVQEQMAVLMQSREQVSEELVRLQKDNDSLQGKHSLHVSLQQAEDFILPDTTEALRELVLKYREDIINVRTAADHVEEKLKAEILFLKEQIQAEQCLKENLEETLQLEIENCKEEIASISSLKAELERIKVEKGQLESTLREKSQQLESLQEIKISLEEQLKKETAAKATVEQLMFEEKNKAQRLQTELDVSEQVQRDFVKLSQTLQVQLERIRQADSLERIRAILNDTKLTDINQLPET

Experiment [2] deals with T3, Cleavage stimulation factor subunit 2 tau variant (CSTF2T) (Homo sapiens, UniProt Q9H0L4).
T3 sequence (Q9H0L4 1-616): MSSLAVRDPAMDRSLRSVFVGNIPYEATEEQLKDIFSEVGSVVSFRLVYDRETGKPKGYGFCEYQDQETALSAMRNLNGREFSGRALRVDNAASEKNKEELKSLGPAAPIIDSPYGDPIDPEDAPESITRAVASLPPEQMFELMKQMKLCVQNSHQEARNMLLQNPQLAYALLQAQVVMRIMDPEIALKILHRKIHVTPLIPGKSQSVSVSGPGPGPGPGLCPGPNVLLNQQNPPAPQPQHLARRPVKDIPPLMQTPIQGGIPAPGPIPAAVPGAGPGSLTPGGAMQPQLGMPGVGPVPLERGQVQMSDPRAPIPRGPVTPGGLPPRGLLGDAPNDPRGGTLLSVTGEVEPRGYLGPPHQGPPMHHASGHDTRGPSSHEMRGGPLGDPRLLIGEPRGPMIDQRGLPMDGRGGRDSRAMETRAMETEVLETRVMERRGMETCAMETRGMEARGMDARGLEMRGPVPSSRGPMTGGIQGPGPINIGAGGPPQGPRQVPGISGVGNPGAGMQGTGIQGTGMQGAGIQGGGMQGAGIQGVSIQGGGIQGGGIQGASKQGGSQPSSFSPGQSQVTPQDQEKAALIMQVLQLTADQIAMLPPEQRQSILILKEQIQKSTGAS
In kind it is binding.

The target of the next experiment is DYNC1I2 (Homo sapiens, UniProt Q13409). In kind it is binding.
For another experiment, the target named is TNS1 (Homo sapiens, UniProt Q9HBL0). In kind it is binding.
The target of a further experiment is T4, NFU1 (Homo sapiens, UniProt Q9UMS0).
T4 sequence (Q9UMS0 10-254): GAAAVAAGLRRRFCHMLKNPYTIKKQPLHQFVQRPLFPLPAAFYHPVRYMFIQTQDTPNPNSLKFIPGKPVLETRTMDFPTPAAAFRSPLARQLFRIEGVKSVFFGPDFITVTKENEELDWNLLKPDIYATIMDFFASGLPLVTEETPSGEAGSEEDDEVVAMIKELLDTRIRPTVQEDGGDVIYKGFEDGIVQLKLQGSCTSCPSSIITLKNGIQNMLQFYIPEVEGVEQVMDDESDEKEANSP
Format: binding.

The next experiment concerns the target SARS2 (Homo sapiens, UniProt Q9NP81). Format: binding.
For a further experiment, the target named is T5, CYCS (Homo sapiens, UniProt P99999).
T5 sequence (P99999 1-105): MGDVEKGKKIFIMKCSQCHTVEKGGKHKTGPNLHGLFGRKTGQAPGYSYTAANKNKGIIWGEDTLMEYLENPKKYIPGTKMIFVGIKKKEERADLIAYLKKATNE
In kind it is binding.

The next experiment addresses RPL37 (Homo sapiens, UniProt P61927).
In a further experiment the target is T6, F-box protein 21 (FBX21) (Homo sapiens, UniProt O94952).
T6 sequence (O94952 1-628): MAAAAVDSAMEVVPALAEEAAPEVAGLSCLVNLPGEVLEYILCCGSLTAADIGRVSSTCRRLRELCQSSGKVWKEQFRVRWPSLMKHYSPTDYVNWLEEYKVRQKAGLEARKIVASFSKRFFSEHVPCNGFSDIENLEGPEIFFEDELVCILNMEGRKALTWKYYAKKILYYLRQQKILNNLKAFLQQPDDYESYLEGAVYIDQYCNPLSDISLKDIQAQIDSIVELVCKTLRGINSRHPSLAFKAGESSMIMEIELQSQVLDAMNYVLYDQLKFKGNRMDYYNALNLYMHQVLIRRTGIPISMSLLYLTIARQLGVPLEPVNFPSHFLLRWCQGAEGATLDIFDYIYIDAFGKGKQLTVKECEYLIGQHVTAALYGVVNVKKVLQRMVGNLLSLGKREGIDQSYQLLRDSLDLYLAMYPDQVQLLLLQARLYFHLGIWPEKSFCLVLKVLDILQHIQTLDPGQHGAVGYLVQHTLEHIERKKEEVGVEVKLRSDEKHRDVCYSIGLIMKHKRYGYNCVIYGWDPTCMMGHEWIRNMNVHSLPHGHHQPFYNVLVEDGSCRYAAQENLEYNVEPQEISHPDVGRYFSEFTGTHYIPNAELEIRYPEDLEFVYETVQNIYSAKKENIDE

Like-named read-outs stand apart in the source and are kept apart here.

In the case of `CC[C@H](CO)Nc1nc(NCc2ccccc2)c2ncn(C(C)C)c2n1` [Roscovitine, roscovitine], the ΔTm at 10 µM was found to be 4.4 °C at PSMG4 (read-out: + Tm shift PSMG4, Rep1); 4.1 °C on PSMG4 (read-out: + Tm shift PSMG4, Rep2); 2.5 °C in [1] (read-out: + Tm shift RABEP1, Rep1); 2.7 °C in experiment [1] (read-out: + Tm shift RABEP1, Rep2); 2.2 °C in experiment [2] (read-out: + Tm shift CSTF2T, Rep1); 2.2 °C in experiment [2] (read-out: + Tm shift CSTF2T, Rep2). In addition, the ΔTm at 10 µM stood at 2.9 °C on DYNC1I2 (read-out: + Tm shift DYNC1I2, Rep1); 1.1 °C on DYNC1I2 (read-out: + Tm shift DYNC1I2, Rep2); 0.8 °C at TNS1 (read-out: + Tm shift TNS1, Rep1); 2.1 °C at TNS1 (read-out: + Tm shift TNS1, Rep2); 2.1 °C at NFU1 (read-out: + Tm shift NFU1, Rep1); 0.4 °C on NFU1 (read-out: + Tm shift NFU1, Rep2). In addition, the ΔTm at 10 µM on SARS2 (read-out: + Tm shift SARS2, Rep1) stood at 0.9 °C; at SARS2 (read-out: + Tm shift SARS2, Rep2), 1.3 °C; at CYCS (read-out: + Tm shift CYCS, Rep1), 1.1 °C; on CYCS (read-out: + Tm shift CYCS, Rep2) it was 1.4 °C; on RPL37 (read-out: + Tm shift RPL37, Rep1) it was 1.3 °C; at RPL37 (read-out: + Tm shift RPL37, Rep2) it was 0.6 °C. Besides, the ΔTm at 10 µM on F-box protein 21 (FBX21) (read-out: + Tm shift FBX21, Rep1) was 4.1 °C; at F-box protein 21 (FBX21) (read-out: + Tm shift FBX21, Rep2), 1.7 °C.

The values above are taken from article PMC6892409, “Phenotypic proteomic profiling identifies a landscape of targets for circadian clock–modulating compounds” (Life Science Alliance, 2019).
